Literature values as cited in patent US20140342369A1, “HAPLOID CELLS” (published 2014).

System: mammalian fucosyl-transferases FucTIII, V, VI, and VII
Settings: previously shown (Büchsel et al., 1980 and others); cited from earlier work

Question: For `O=CC[C@@H](O)[C@@H](O)[C@H](O)CO`, which inhibition of fucosyl-transferases is on record?
Answer: specifically inhibit
